Source: patent publication US20240207141A1, “PEPTIDE HAVING REPARATIVE DENTIN-REGENERATING ACTIVITY AND USE THEREOF” (SEOUL NATIONAL UNIVERSITY R&DB FOUNDATION, priority 2022, published 2024)

Test system: rat pulp exposure model
Assay: Rat tooth pulp exposure model, histologic analysis (H&E) of inflammatory response and hard tissue formation
Assay type: in vivo
Excerpt: Seven-week-old male Sprague-Dawley rats were purchased from the OrientBio after approval from the Institutional Animal Care and Use Committee of Seoul National University (No. SNU-180109-2) was obtained. The rats were used after 1-week acclimation under standard animal housing conditions (12-h light and 12-h dark cycles with free access to food and water) and randomly divided into the following six groups for the pulp-capping procedure: self-adhesive resin cement (Resin) group, ProRoot MTA (MTA) group, vehicle (Veh) group, rhBMP-2 group, SP group, and VnP-16 group. The Resin group and Veh group were used as negative controls and the MTA group and rhBMP-2 group were used as positive controls. Resin cement (Rely X U-200, 3M ESPE, MN, USA) was used as the final restoration in all experimental groups.
Specifically, the rats were anesthetized by the intraperitoneal injection of 31.25 mg/kg tiletamine/zolazepam and 8.75 mg/kg xylazine. After ascertaining the general anesthesia, the oral cavity was opened with a customized wire to expose the lower first molars. After cleaning and sanitizing with both 3% H2O2 and a 10% Betadine-soaked cotton, the center of the occlusal surface was carefully punctured using a #¼ round bur (0.5 mm in diameter) with a high-speed hand piece. MTA (ProRoot MTA, Dentsply Sirona, York, PA, USA) was mixed according to the manufacturer's instruction and the mixture was applied to the exposed pulp. Absorbable collagen sponges (BiolandKorea, Cheonan, Korea) were loaded with vehicle (10 μL of DMSO and 5 μL of DDW) (vehicle (Vhe) group), rhBMP-2 (2 μg per scaffold, 15 μL volume; Pepro-Tech, Rocky Hill, NJ, USA) (rhBMP-2 group), or synthetic peptides SP or VnP-16 (2 mg per scaffold, 15 μL volume) (SP and VnP-16 groups), respectively, and then applied to the exposed pulp. The punctured sites were covered with resin cement after the application of MTA or the collagen sponge. In the Resin group, resin cement was directly applied to the punctured site. The sharp cusp tips of the upper molar and lower first molar were grinded using a football shaped diamond bur in order to prevent tooth fractures by mastication.
Rats were histologically analyzed 2 and 4 weeks after pulp exposure surgery. Whole mandibles were fixed f in 4% paraformaldehyde at 4° ° C. for 24 hours. For histological staining, the specimens were decalcified with 12% EDTA for 4 weeks and embedded in paraffin. […] Each sample was evaluated and scored for inflammatory response and hard tissue formation according to the criteria presented in [Table 2] below. In this study, reparative dentin formed under the pulp-exposed site, which is distinguished from dentin regenerated under the existing dentin, was evaluated.

[1] = 2 weeks after pulp exposure surgery, grade per Table 2

Question: What does the source list for “rhBMP-2: rhBMP-2 from Pepro-Tech loaded on collagen sponge; positive control”?
Answer: newly formed mineralized tissues at the pulp-exposed sites (2 weeks after pulp exposure surgery): hardly detected; number of specimens with a moderate inflammatory response [1]: 3 out of 6; share of specimens with a moderate inflammatory response [1]: 50%; reparative dentin formation score (4 weeks after pulp exposure surgery): moderate and heavy
